Results taken from patent publication US9102670B2, “Pyrido-, pyrazo- and pyrimido-pyrimidine derivatives as mTOR inhibitors” (KuDOS Pharmaceuticals Limited, priority 2006, dated 2015).

System: phosphorylation of Serine 473 in Akt
Assay: In Vitro Phospho-Ser473 Akt Assay in MDA-MB-468 cells
Type: cell-based
Settings: Homo sapiens, MDA-MB-468, read-out: IC50 values against mTOR, phospho-Ser473 Akt assay, MDA-MB-468 cells

In the case of `C[C@H]1COCCN1c1nc(N2CCOC[C@@H]2C)c2ccc(-c3ccc(CNCCO)cc3)nc2n1` [Example 4f], the IC50 is reported as < 0.1 µM.
